# Assay results: PubChem BioAssay AID2462 (Broad Institute, 2010)
# Only a part is listed here, and it is no random draw. Some of these compounds have results that are not shown, active ones among them. The source made the active and inactive calls.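 The calls were made as follows: active = over half of replicate activation scores above 10%, or exactly half above 10 with the replicate mean above 10; inconclusive = replicate mean below 10 yet half the replicates above 10; inactive = over half of replicates below 10.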
# Assay: caspase 3/7 activation in MEF A1-2A-BIM cells, primary screen, A1 inhibitor project, cell-based, luminescence, HTS (AID 2462)
# Settings: Caspase-Glo 3/7 luminescence, 3 h, hits give high values, percent of clofoctol response, vehicle zero, concentration not given here
row,SMILES,caspase activation
1,O=C(OC1CN2CCC1CC2)C(CO)(c1ccccc1)c1ccccc1 (centres undefined),inactive: -0.185%
2,COc1ccc(Br)c(C(=O)NCC2(N3CCCCC3)CCCCC2)c1,inactive: 0.738%
3,CC(C)Oc1ccc(C(=O)NCC2(N(C)C)CCCCC2)cc1,inactive: -0.873%
4,CN(C)c1cccc(C(=O)NCC2(N(C)C)CCCCC2)c1,inactive: -0.444%
5,CN(C)C1(CNC(=O)c2ccc(Br)cc2)CCCCC1,inactive: 0.31%
6,COc1cc(C(=O)NCC2(N(C)C)CCCCC2)c([N+](=O)[O-])cc1OC,inactive: 0.714%
7,COc1cccc(C(=O)NCC2(N3CCCCC3)CCCCC2)c1,inactive: 0.0942%
8,COc1ccc(Cl)cc1C(=O)NCC1(N(C)C)CCCCC1,inactive: -0.0789%
9,O=C(NCC1(N2CCCCC2)CCCCC1)c1cccc(Cl)c1,inactive: 0.0949%
10,Cc1ccccc1C(=O)NCC1(N2CCCCC2)CCCCC1,inactive: 0.79%
11,CN(C)C1CCCC1OC(=O)C(O)(c1ccccc1)c1ccccc1 (centres undefined),inactive: 0.385%
12,CN(C)c1ccc(C(=O)NCC2(N(C)C)CCCCC2)cc1,inactive: -0.0664%
13,C=CCN1CCN(CCOC(=O)C(O)(c2ccccc2)c2ccccc2)CC1,inactive: 0.457%
14,O=C(NCC1(N2CCCCC2)CCCCC1)c1cc(F)c(F)cc1Cl,inactive: -0.366%
15,COc1ccc(C(=O)NCC2(N(C)C)CCCCC2)cc1,inactive: 0.479%
16,Cc1cc(C(=O)NCC2(N3CCCCC3)CCCCC2)ccc1[N+](=O)[O-],inactive: -0.579%
17,CCN1CCCC(OC(=O)C2(O)c3ccccc3C=Cc3ccccc32)C1 (centres undefined),inactive: 0.453%
18,O=C(NCC1(N2CCCCC2)CCCCC1)c1cccc(Br)c1,inactive: 0.197%
19,O=C(NCC1(N2CCCCC2)CCCCC1)c1cc([N+](=O)[O-])ccc1Cl,inactive: 0.41%
20,CN1[C@@H]2CC[C@H]1CC(OC(=O)C(O)(c1ccccc1)c1ccccc1)C2 (some centres undefined),inactive: -0.267%
21,CCN(CC)CC(C)C(C)OC(=O)C(O)(c1ccccc1)c1ccccc1 (centres undefined),inactive: -0.213%
22,COc1cc(SC)ccc1C(=O)NCC1(N(C)C)CCCCC1,inactive: 0.679%
23,CC(C)N1C(=O)CC2(CCN(CCOC(=O)C(O)(c3ccccc3)c3ccccc3)CC2)C1=O,inactive: 0.0707%
24,Cc1ccc(C(=O)NCC2(N3CCCCC3)CCCCC2)cc1,inactive: -0.226%
